The values below come from US20120231013A1.

Protein sequences, listed by entry. Tags and fused reporters are not part of them. Residues count along the entry.
UniProt P35625, 24-211 limits assumed: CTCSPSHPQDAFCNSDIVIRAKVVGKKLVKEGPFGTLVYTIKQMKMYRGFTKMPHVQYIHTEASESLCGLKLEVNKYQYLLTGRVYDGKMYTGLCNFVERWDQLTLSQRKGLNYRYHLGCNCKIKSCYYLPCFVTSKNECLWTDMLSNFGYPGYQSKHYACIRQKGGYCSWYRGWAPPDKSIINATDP

In this test the target is recombinant human TIMP-3 (human) (UniProt P35625). Briefly: cell-based or functional assay.

Regarding LRP-1 peptide LA10, the % of the inhibitory activity of TIMP-3 + peptide compared to TIMP-3 alone, 16 nM came to 106%; the % of the inhibitory activity of TIMP-3 + peptide compared to TIMP-3 alone, 80 nM was determined as 106%; the % of the inhibitory activity of TIMP-3 + peptide compared to TIMP-3 alone, 400 nM is 102%; the % of the inhibitory activity of TIMP-3 + peptide compared to TIMP-3 alone, 2000 nM came to 103%.
